Legend:
Carbonic anhydrase 9 = Carbonic anhydrase 9 (Homo sapiens, UniProt Q16790)
Carbonic anhydrase 2 = Carbonic anhydrase 2 (Homo sapiens, UniProt P00918)
Carbonic anhydrase 1 = Carbonic anhydrase 1 (Homo sapiens, UniProt P00915)

Ki (Carbonic anhydrase 9) [nM] | Ki (Carbonic anhydrase 2) [nM] | Ki (Carbonic anhydrase 1) [nM] | Compound
12 | 65 | 95 | NS(=O)(=O)c1ccc(CCNC(=O)CN(CC(=O)NO)S(=O)(=O)c2ccc(Oc3ccccc3)cc2)cc1
13 | 35 | 2490 | NS(=O)(=O)c1ccc(CCNC(=O)CN(CC(=O)NO)S(=O)(=O)c2ccc(-c3ccccc3)cc2)cc1
